From ChEMBL document CHEMBL1147608, “SAR development of polycyclic guanine derivatives targeted to the discovery of a selective PDE5 inhibitor for treatment of erectile dysfunction” (Bioorg Med Chem Lett, 2004)

Target: cGMP-specific 3',5'-cyclic phosphodiesterase (Homo sapiens, UniProt O76074)

| SMILES | pIC50 |
| --- | --- |
| CCN1C(=O)c2c(ncn2Cc2ccc(OC)c(Cl)c2)N2C1=N[C@@H]1CCC[C@@H]12 | 8.08 |
| CCN1C(=O)c2[nH]c(Cc3ccccc3)nc2N2C[C@@H](Cc3ccccc3)N=C12 | 8.35 |

pIC50: −log10 of the molar value.
